Laboratory results taken from patent US20120065614A1, “POLYIONIC TRANSITIONAL METAL PHOSPHORESCENT COMPLEX/POLYMER HYBRID SYSTEMS FOR BIOIMAGING AND SENSING APPLICATIONS” (UNIVERSITY OF NORTH TEXAS, priority 2010, published 2012).

How the values were obtained:
[1] = Steady-state photoluminescence spectra (emission/excitation maxima); format: physicochemical; conditions: aqueous solution of 0.001M
Procedure: Photoluminescence characterization: All photoluminescence studies were carried with the PTI spectrofluorometer described below. For titrations, 2.5-mL aliquots were placed in the quartz cuvette and 0.1 mL of gel was added at every titration point with magnetic stirring. Titration data were plotted as I/Io vs. volume of gel added (where I=intensity of sample after addition of gel and 1o=intensity of pure aqueous gold phosphor solution). Lifetime data were analyzed using a xenon flash lamp or N2 laser systems for both the sample and a scatterer solution used to generate the instrument response function (IRF) used for deconvolution.
Spectroscopic equipment: Steady-state luminescence spectra were acquired with a PTI QuantaMaster Model QM-4 scanning spectrofluorometer equipped with a 75-watt xenon lamp. The UVN is absorption spectra were measured at 1-nm resolution on either a diode array spectrometer (Hewlett-Packard, model 8543) or a Perkin-Elmer Lambda-900 double-beam UVN is/NIR absorption spectrophotometer.

[2] = aqueous solution, literature; cited from earlier work

O=S(=O)([O-])c1cccc([PH](c2cccc(S(=O)(=O)[O-])c2)(c2cccc(S(=O)(=O)[O-])c2)[Au]([PH](c2cccc(S(=O)(=O)[O-])c2)(c2cccc(S(=O)(=O)[O-])c2)c2cccc(S(=O)(=O)[O-])c2)[PH](c2cccc(S(=O)(=O)[O-])c2)(c2cccc(S(=O)(=O)[O-])c2)c2cccc(S(=O)(=O)[O-])c2)c1 [Na8[Au(TPPTS)3], tris[tris(3,3′,3″-trisulfonatophenyl)phosphine]aurate(I)]
emission maximum [1]: 525 nm | emission band centre [2]: ~515 nm
